# Measurements reported in ChEMBL document CHEMBL4765381, “Neuropeptide FF and Its Receptors: Therapeutic Applications and Ligand Development” (J Med Chem, 2020).
# Chains of the proteins cited; added tags and fusions are not shown. Lines headed by an entry give the natural chain unless they say otherwise; changes in a name come on top.
# UniProt Q9Y5X5: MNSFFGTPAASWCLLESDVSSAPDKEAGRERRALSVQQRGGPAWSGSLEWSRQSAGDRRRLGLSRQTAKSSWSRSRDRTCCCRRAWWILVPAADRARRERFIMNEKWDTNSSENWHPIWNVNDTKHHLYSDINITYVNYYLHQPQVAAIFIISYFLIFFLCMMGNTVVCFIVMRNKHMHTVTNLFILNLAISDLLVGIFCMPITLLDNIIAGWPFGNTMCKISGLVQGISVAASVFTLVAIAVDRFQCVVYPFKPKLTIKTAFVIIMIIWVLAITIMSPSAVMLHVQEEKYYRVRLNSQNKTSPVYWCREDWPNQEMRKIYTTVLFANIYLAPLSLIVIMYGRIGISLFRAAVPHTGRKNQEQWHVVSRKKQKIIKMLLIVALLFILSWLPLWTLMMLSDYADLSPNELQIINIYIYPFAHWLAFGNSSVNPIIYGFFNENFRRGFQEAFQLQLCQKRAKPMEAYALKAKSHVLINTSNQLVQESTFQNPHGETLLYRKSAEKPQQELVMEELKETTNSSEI
# Assays:
# [1] = target: T1, Neuropeptide FF receptor 2 (Homo sapiens, UniProt Q9Y5X5); assay: Displacement of [125I]EYF from human NPFFR2 expressed in CHO cell membranes; assay type: cell-based
# [2] = Binding affinity to NPFFR in rat spinal cord by competitive ligand binding assay; assay type: tissue-based
# [3] = target: T1, Neuropeptide FF receptor 2; assay: Agonist activity at human NPFFR2 expressed in CHO cells assessed as inhibition of forskolin-induced intracellular cyclic cAMP accumulation; assay type: functional, cell-based
Ki [1],Ki [2],EC50 [3],SMILES
6.6 nM,1.8 nM,517 nM,CSCC[C@H](NC(=O)[C@@H](N)Cc1ccccc1)C(=O)N[C@@H](CCCN=C(N)N)C(=O)N[C@@H](Cc1ccccc1)C(N)=O
,,309 nM,N=C(N)NCCC[C@H](NC(=O)[C@H](CCC(N)=O)NC(=O)[C@@H]1CCCN1)C(=O)N[C@@H](Cc1ccccc1)C(N)=O
